Molecular target: AtHNL (Arabidopsis thaliana, UniProt Q9LFT6)
Conditions: cleavage reaction of cyanohydrin by AtHNL, citrate-phosphate buffer pH 5

The chains behind the UniProt entries cited, without tags or fusion partners. Where a name states a change or a piece, a line headed by the entry shows the natural chain unless it says otherwise.
UniProt Q9LFT6: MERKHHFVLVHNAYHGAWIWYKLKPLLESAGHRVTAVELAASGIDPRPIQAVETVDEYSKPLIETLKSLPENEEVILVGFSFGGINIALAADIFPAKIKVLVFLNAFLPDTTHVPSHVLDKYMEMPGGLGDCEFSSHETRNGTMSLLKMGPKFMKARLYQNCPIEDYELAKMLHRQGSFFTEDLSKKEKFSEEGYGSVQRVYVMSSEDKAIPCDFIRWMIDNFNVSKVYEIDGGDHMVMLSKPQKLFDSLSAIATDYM

| Molecule | Specify activity (U/mg), HCN-Test (see Ib above) |
| --- | --- |
| N#CC1(O)CCCCC1 | 0.11 U/mg |
| CC(C)(O)C#N | <0.05 U/mg |
| 3-Phenoxybenzaldehyde cyano- hydrin | 0.3 U/mg |
| N#CC(O)c1ccccc1 (stereo not shown) [Benzaldehyde cyanohydrin] | 4.3 U/mg |
